# Measured values from PMC8048383 (Cancer cell, 2021).
# Tested on: SCLC cells
# Assay: MIPE 5.0 library combination screen with indotecan, pairs ranked by ExcessHSA
# Type: cell-based, human
structure (smiles),measurement,value
C[C@@H]1COCCN1c1cc(-c2ccnn2C)c2ccnc(-c3ccn[nH]3)c2n1 [BAY-1895344],rank of TOP1 inhibitor-drug pair by ExcessHSA,1
